48 compounds from PubChem BioAssay AID1259400 (National Center for Advancing Translational Sciences (NCATS), 2018) can be followed below.

Amino acid sequences for entries named in this document (tags omitted). A change or cut given only in a name is not applied to a line headed by its entry.
UniProt Q9HBX9: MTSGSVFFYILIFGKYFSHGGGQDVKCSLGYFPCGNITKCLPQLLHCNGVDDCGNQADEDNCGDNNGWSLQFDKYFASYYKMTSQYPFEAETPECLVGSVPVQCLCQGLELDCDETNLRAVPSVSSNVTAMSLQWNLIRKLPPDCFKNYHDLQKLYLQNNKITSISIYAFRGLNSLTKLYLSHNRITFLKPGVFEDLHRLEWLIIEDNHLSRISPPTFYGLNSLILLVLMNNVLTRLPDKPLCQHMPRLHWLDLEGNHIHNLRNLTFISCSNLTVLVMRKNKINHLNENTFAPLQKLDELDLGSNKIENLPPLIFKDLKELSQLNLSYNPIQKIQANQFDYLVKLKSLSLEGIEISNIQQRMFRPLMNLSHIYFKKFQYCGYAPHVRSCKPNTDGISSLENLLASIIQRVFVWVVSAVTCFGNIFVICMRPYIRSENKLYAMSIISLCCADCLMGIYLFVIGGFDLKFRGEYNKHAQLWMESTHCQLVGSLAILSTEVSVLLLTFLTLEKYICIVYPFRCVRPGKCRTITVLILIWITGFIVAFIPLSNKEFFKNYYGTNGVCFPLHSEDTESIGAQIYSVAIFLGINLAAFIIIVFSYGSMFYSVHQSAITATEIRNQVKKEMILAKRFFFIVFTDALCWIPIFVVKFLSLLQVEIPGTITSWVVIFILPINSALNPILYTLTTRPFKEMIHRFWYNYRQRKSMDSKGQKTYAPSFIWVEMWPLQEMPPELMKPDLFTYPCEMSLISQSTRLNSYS

The structures appear in SMILES notation. The entries are a selection whose mix differs from that of the whole data set. Calls of active or inactive are those of the source.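 The calls were made as follows: active = activity change of -60% or lower, but not beyond a set lower limit; inconclusive = change between -60% and -40%, or beyond the set limit; inactive = change above -40%.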
% is scaled to controls: 0 for no effect and ±100 for the full control effect.

In the test the target is Relaxin receptor 1 (Homo sapiens) (UniProt Q9HBX9). Nature of the test: qHTS Assay for Antagonists of the Relaxin Receptor RXFP1. The note with it: HEK293-RXFP1, relaxin-stimulated cAMP HTRF, 30 min; at 57.5 µM; active compounds read low. From the text:
The relaxin hormone is involved in the variety of biological functions in normal tissues and diseases. The role of relaxin is well-established in female reproduction and parturition, mammary gland and endometrial development, maintenance of myometrial quiescence during pregnancy. Relaxin signaling through its G protein-coupled receptor (GPCR) RXFP1 results in ECM remodeling through regulation of collagen deposition, cell invasiveness, proliferation and overall tissue homeostasis. […] Recombinant human relaxin (rhRlx) is currently being tested in clinical trials as a protective agent in congestive heart failure, in treating severe preeclampsia, and as an anti-fibrotic agent in various organs. […] Upon relaxin binding RXFP1 activation leads to the activation of adenylate cyclase (AC) via G?s. cAMP will activate PKA, which phosphorylates many signaling proteins. Thus, detection of cAMP increase is an easy and reliable indication of relaxin receptor activation. To screen for antagonists of the relaxin receptor, a HEK293T cell line stably transfected with RXFP1 was used. RXFP1 activation by relaxin in presence of various concentrations of tested compounds was assayed by changes in cAMP levels as detected with a time-resolved fluorescence energy transfer (TR-FRET) cAMP detection kit.
For the primary screening, we used HTRF(R) (Homogenous Time-Resolved Fluorescence) cAMP HiRange assay (Cisbio Bioassays, 62AM6PEJ). Presence of cAMP in the cell lysate disrupts binding between the Cryptate-labeled anti-cAMP and d2-labeled cAMP pair, leading to a decrease in TR-FRET signal. The libraries were screened at two doses (57microM and 11microM), followed by a confirmation of the hits at 7-point serial dilution in the range of final concentrations [57microM - 78nM]. Data were normalized to the controls for basal activity (buffer only) and 100% activity (5 nM porcine relaxin). The EC50 values were determined from concentration-response data modeled with the standard Hill equation. NCGC Assay Protocol Summary: HiHEK (Hawaiian HEK293 LGR7 stably transfected with human RXFP1) were grown in the following media: DMEM+10%FBS+Pen/Strep + Geneticin (1mg/ml). For the assay, the cells were seeded in DMEM+Pen/Strep (with no serum & selective antibiotics) at 2,100 cells/ 3microl/well with MultiDrop Combi dispenser (Thermo Scientific, Logan, UT) onto white tissue culture treated solid bottom1536-well plates (Greiner #789173-F) and allowed to attach/recover overnight at 37 degrees C, 5% CO2. Next, 23nl/well of compound solutions in DMSO were transferred into wells with a pintool (Kalypsis, San Diego, CA). […] EC80 (relaxin at 50pM final concentration) was dispensed to the rest of the plate except columns 1&2 which were used as a negative control (EC0, buffer only), 1microl/well also. The cells were stimulated by relaxin in the presence of compounds for 30 minutes at 37 degrees C, 5% CO2. The detection reagents were prepared individually by dilution in Lysis buffer (supplied with the assay kit) just prior to dispensing. 1microl/well of cAMP-d2 and 1microl/well anti-cAMP-Eu3+-Cryptate antibodies were added simultaneously with BioRAPTR FRDtrade mark Workstation (Beckman Coulter). The plates were incubated at ambient temperature for 30 minutes and, then, FRET signal was read on Envision plate reader (PerkinElmer, Waltham, MA), at wavelengths 340nm (excitation), 615nm & 665nm (emission of donor and acceptor channels respectively).
Regarding `CC(C)c1nc(Nc2ccccc2)n(P(=O)(N(C)C)N(C)C)n1`, the activity change, negative = inhibition is inactive: -3.54%.
To `c1cc(-c2nn[nH]n2)ccc1-c1nn[nH]n1` belongs inactive: 2.86%; to `CC1CCN(C(=O)Oc2c(Cl)cc(Cl)c3cccnc23)CC1`, inactive: -9.05%.
The value for `COc1ccc(C2=NCC(CBr)S2)cc1` (stereo not drawn) was inactive: 4.01%.
The value for `O=[N+]([O-])c1cccc2n[nH]nc12` was inactive: 0.733%; that for `CC(=O)N1C2C3N(C(C)=O)C1C1N(C(C)=O)C(C(N1C(C)=O)N3C(C)=O)N2C(C)=O` was inactive: -0.335%.
As for `CCc1nc2c(n1)c1c(non1O)c1c2no[n+]1[O-]`, the activity change, negative = inhibition was inactive: 4.24%.
The value for `O=[N+]([O-])c1cc([N+](=O)[O-])c(CCNc2ccccc2)c([N+](=O)[O-])c1` was inactive: -38.4%.
Consider `Cc1ccc(NP(=O)(Oc2ccccc2)Oc2ccccc2)nc1`, for which the activity change, negative = inhibition was inactive: 7.76%.
Regarding `CC(C)C(=O)NC(Sc1ccccc1)C(Cl)(Cl)Cl` (stereo not drawn), the activity change, negative = inhibition was inactive: -7.56%.
The value for `O=P(Nc1nccs1)(c1ccccc1)c1ccccc1` was inactive: 6.43%; that for `c1nnnn1CCn1cnnn1` was inactive: 5.43%; that for `O=[N+]([O-])c1ccc(O)c(/C=N/Nc2ccc([N+](=O)[O-])cc2[N+](=O)[O-])c1` was inactive: -9.7%.
The value for `O=[N+]([O-])c1ncn(CCn2cnc([N+](=O)[O-])n2)n1` was inactive: 7.9%.
Regarding `CC(=O)NC(SC(=S)N(C)C)C(Cl)(Cl)Cl` (stereo not drawn), the activity change, negative = inhibition was inactive: 0.378%.
The value for `O=[As](O)(c1ccccc1)c1ccc(O)cc1` was inactive: -12.9%; that for `Nc1ccc([As](=O)(O)c2ccc([N+](=O)[O-])cc2)cc1` was inactive: -7.09%; that for `C(Cc1nn[nH]n1)Cc1nn[nH]n1` was inactive: 16.3%.
To `O=C(OC1CN2CCC1CC2)c1cccc(Cl)c1` (stereo not drawn) belongs inactive: -10.9%; to `COc1ccc(N)c([N+](=O)[O-])c1[N+](=O)[O-]`, inactive: -22.1%.
To `O=P(Nc1ccccn1)(c1ccc(Br)cc1)c1ccc(Br)cc1` belongs inactive: -25.8%; to `CN(C)C1(CNC(=O)c2ccc(Cl)c(S(N)(=O)=O)c2)CCCCC1`, inactive: -8.78%; to `O=P(Nc1nc2ccccc2s1)(c1ccccc1)c1ccccc1`, inactive: -1.8%.
For `CN(C(=O)Cc1ccccc1)[C@H]1CC[C@@]2(CCCO2)C[C@@H]1N1CCCC1`, the activity change, negative = inhibition was inactive: 5.02%.
The value for `Cc1cc([N+](=O)[O-])cc([N+](=O)[O-])c1O` was inactive: -34.1%; that for `Cc1ccc(OP(=O)(Nc2ccccn2)Oc2ccc(C)cc2)cc1` was inactive: -0.63%.
To `CC(=O)NC(SC(=S)N(CC(C)C)CC(C)C)C(Cl)(Cl)Cl` (stereo not drawn) belongs inactive: 0.686%; to `COC(=O)c1cc2c(s1)N=C(c1ccccc1)N(C)P2(=O)N1CCOCC1` (stereo not drawn), inactive: -3.87%.
As to `CCC(=O)N1C2C3N(C(=O)CC)C1C1N(C(=O)CC)C(C(N1C(=O)CC)N3C(=O)CC)N2C(=O)CC`, the activity change, negative = inhibition was inactive: -2.43%.
The value for `O=C(OC1CN2CCC1CC2)c1ccccc1` (stereo not drawn) was inactive: -4.92%; that for `CN(C)C(=O)Oc1noc2ccccc12` was inactive: -1.53%.
Turning to `Cc1ccccc1OP(=O)(Nc1ccccn1)Oc1ccccc1C`, the activity change, negative = inhibition is inactive: -17.3%.
For the compound `CC(NC(=O)COC(=O)C(O)(c1ccccc1)c1ccccc1)c1ccccc1` (stereo not drawn), the activity change, negative = inhibition is inactive: -13.9%.
In the case of `CCNC(=S)/N=C(\N)N[N+](=O)[O-]`, the activity change, negative = inhibition was inactive: 4.36%.
To `O=C(NC1CCS(=O)(=O)C1)NP(=S)(Oc1ccccc1)Oc1ccccc1` (stereo not drawn) belongs inactive: 9.92%.
The value for `Cc1ccc(NP(=O)(Oc2cccc(C)c2)Oc2cccc(C)c2)nc1` was inactive: -19.7%.
The value for `c1ccc(-c2nn[nH]n2)c(-c2nn[nH]n2)c1` was inactive: -5.65%; that for `O=P1(N(CCCl)CCCl)OCCC2CCCCN21` (stereo not drawn) was inactive: 4.85%; that for `COC(=O)C1(C)COP(=O)(NCc2ccccc2)OC1` (stereo not drawn) was inactive: -0.231%.
On to `N#C/C(=C\c1ccc(N(CCBr)CCBr)cc1)C(N)=O`, for which the activity change, negative = inhibition is inactive: -15.1%.
On to `CC(=O)c1ccc(N2CC2c2ccncc2)cc1` (stereo not drawn), for which the activity change, negative = inhibition was inactive: 6.79%.
The value for `Cc1ccccc1CN(C)C(=O)COC(=O)C(O)(c1ccccc1)c1ccccc1` was inactive: -5.24%; that for `CC(=O)Nc1ccc(Oc2c([N+](=O)[O-])cc([N+](=O)[O-])cc2[N+](=O)[O-])cc1` was inactive: 2.71%.
The value for `CC(=O)Nc1ccc([As](=O)(O)O)c(O)c1` was inactive: -6.05%; that for `CCOc1ccc(C2=NCC(CBr)S2)cc1` (stereo not drawn) was inactive: 13.8%; that for `O=P1(Nc2nc3ccc(Cl)cc3s2)COc2ccccc2O1` (stereo not drawn) was inactive: -8.43%.
To `CCc1cc(O)c([N+](=O)[O-])c(C)c1[N+](=O)[O-]` belongs inactive: -4.2%; to `CC(C)(C)C(=O)NC(Sc1ccccc1)C(Cl)(Cl)Cl` (stereo not drawn), inactive: -17%.
